Laboratory results published in patent US20260193179A9.
Only a part of the results on these compounds is given; other tests are left out.

Target: Thrombin (Homo sapiens, UniProt P00734)
Experiment: Thrombin inhibition
Format: biochemical

n1nc2c([nH]1)c1nn[nH]c1c1nn[nH]c21
Thrombin Ki (μM): No Activity
